The record followed here is US9302989B2 (priority 2010, dated 2016).

By UniProt entry, the sequences of proteins in these tests, tags left out. Where a name states a change or a piece, a line headed by the entry shows the natural chain unless it says otherwise.
UniProt P43490: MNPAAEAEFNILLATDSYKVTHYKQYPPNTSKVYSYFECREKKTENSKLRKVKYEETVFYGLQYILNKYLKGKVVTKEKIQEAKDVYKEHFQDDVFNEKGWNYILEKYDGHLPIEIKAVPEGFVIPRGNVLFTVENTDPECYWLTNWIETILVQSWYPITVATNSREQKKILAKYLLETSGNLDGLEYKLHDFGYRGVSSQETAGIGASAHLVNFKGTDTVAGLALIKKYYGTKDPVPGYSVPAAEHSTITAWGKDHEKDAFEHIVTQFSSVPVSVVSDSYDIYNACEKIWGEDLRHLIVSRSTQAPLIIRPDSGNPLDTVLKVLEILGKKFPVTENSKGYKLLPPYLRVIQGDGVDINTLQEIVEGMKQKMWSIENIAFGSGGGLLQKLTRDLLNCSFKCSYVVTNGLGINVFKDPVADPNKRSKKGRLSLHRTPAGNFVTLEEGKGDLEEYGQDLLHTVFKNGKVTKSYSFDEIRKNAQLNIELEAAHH

For the test, the target named is NAMPT (Homo sapiens (Human), UniProt P43490). As to conditions: read-out: TR-FRET Binding IC50 (μM) probe 1. In general terms: In TR-FRET formats the signal depends on donor and acceptor labels being close together.

Consider “N-{4-[(3R)-3-(butyrylamino)pyrrolidin-1-yl]phenyl}-1,3-dihydro-2H-isoindole-2-carboxamide and N-{4-[(3S)-3-(butyrylamino)pyrrolidin-1-yl]phenyl}-1,3-dihydro-2H-isoindole-2-carboxamide [Example 340]”, for which the IC50 – broadly, the midpoint of a concentration-inhibition curve – stood at 0.783 µM.
